# From ChEMBL document CHEMBL4007441, “Novel Design of Heptad Amphiphiles To Enhance Cell Selectivity, Salt Resistance, Antibiofilm Properties and Their Membrane-Disruptive Mechanism” (J Med Chem, 2017)
# Test system: Escherichia coli
# Details: ATCC 25922
sequence,measurement,value
GENTAMICIN,MIC,0.5 µg/mL
